In the library only some 16% were active in any assay of this set; here they are far more common.
uPA generation – inhibitors of cell surface uPA generation | Potency, µM (highest dose often 38.3 µM), inactives show top-dose activity change, negative = inhibition, actives largely listed as inhibitors | cell surface uPA generation assay, qHTS | AID 540303 | 330,000 tested, 0.31% active; active means well fitted inhibition curve with a large enough effect; inconclusive means small, poorly fitted or top-dose-only effect; inactive means no such curve, though single readings can be large or run the other way; tested in mouse RAW 264.7 cells; further: potency means the concentration at half of the fitted maximal effect; on the % scale 0 is the no-effect control and ±100 the full control effect; nearly all actives have a fitted effect of over 55% in size
TDP1 block – blocks human tyrosyl-DNA phosphodiesterase 1; recombinant TDP1, AlphaScreen DNA substrate cleavage; 350,000 tested, 0.28% active; AID 485290; Potency, µM (series often up to 130 µM), for the others: at the highest dose activity change, negative = inhibition, usual class: inhibitors; further: potency means the concentration at half of the fitted maximal effect; on the % scale 0 is the no-effect control and ±100 the full control effect; nearly all actives have a fitted effect of over 40% in size
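Recombinant human Tdp1 (E. coli-expressed, 1 nM final) preincubated with compounds 15 min at room temperature, then 5'-biotin/3'-phosphotyrosine-FITC DNA substrate (15 nM final) added for 5 min. AlphaScreen beads (10 ug/ml final) added 10 min; cleavage lowers signal.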
miR-21 FLuc – miR-21 reporter, rising signal | HeLa miR-21 FLuc reporter, luciferase, 48 h | Potency, µM (top dose mostly 38.3 µM), inactives show at the highest dose reporter change, positive = more light | 340,000 tested, under 10 active | AID 2288; active = well fitted rising curve with a large enough effect; inconclusive = small, poorly fitted or top-dose-only effect; inactive = no such curve, though single readings can be large or run the other way;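 note: % of control where 0% means no effect; miR-21 action dims this reporter so a rising signal means less miR-21 action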
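Luminescence from a firefly luciferase reporter carrying a miR-21 binding site downstream, stably expressed under a CMV promoter in HeLa cells that make miR-21 endogenously, reports miRNA modulation after 48 h compound exposure up to approximately 40uM final.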
TDP1 cell CPT – growth inhibition of DT40 Tdp1-/-;hTDP1 cells with camptothecin (screen for TDP1 inhibitors); chicken DT40 Tdp1-/-;hTDP1 cells + 20 nM CPT, ATP luminescence, 48 h; Potency, µM (highest dose often 46.2 µM), for inactives: at the top dose activity change, negative = growth inhibition, hits mostly inhibitors; 420,000 tested, 12% active; AID 686979; further: potency means the concentration at half of the fitted maximal effect; on the % scale 0 is the no-effect control and ±100 the full control effect; nearly all actives have a fitted effect of over 55% in size
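Cell growth measured by CellTiter-Glo luminescence after a minimum 48 h, 37 C compound exposure with 20 nM CPT in Tdp1-knockout DT40 cells stably expressing hTDP1, seeded 400/well; qHTS titration format.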
DT40 TDP1 no CPT – qHTS for Inhibitors of human tyrosyl-DNA phosphodiesterase 1 (TDP1): qHTS in cells in absence of CPT; DT40 Tdp1-/- hTDP1 cells, no CPT, ATP luminescence, 48 h; Potency, µM (highest dose often 46.2 µM), without a hit: top-dose activity change, negative = growth inhibition, most hits filed as inhibitors; 420,000 tested, 15% active; AID 686978, 2013; further: potency means the concentration at half of the fitted maximal effect; on the % scale 0 is the no-effect control and ±100 the full control effect; nearly all actives have a fitted effect of over 55% in size
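Chicken DT40 Tdp1-/- cells complemented with human TDP1, screened without camptothecin (DMSO vehicle only), 400 cells/well. Compounds pin-transferred, cells incubated at 37 °C for at least 48 hr. Growth read as ATP-dependent luminescence (CellTiter-Glo, 30 min at RT).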
* hit, by the source's call; ? = inconclusive; / = no result given; ! = not active in a repeat; [ ] = remark or other dose. Unless noted, the call rests on the fitted dose curve; in most records, active means well fitted curve in the direction sought with a large enough effect; inconclusive means small, poorly fitted or top-dose-only effect, or another doubt; inactive means no such curve, though single readings can be large; an effect the other way counts as inactive or inconclusive.

Letter code – A = uPA generation; B = TDP1 block; C = miR-21 FLuc; D = TDP1 cell CPT; E = DT40 TDP1 no CPT
#1 Cc1c(C(=O)OCc2ccccc2)[nH]c2c1C(=O)CC(c1ccc(Cl)cc1)C2 (configuration not stated)
  A: / | B: -4%[12.3 µM] | C: 3% | D: 18µM* | E: 15µM*
#2 COC(=O)c1ccccc1NC(=O)c1ccc(-c2nc(CSc3ccc(C)cc3)c(C)o2)cc1
  A: / | B: 3% | C: -5% | D: -9% | E: 0%
#3 Cc1ccc(Cl)cc1NC(=O)c1ccc(-c2nc(CSc3ccccc3)c(C)o2)cc1
  A: / | B: -6% | C: 20% | D: 9.2µM* | E: 6.5µM*
#4 Cc1oc(-c2cccc(Cl)c2)nc1CSCC(=O)O
  A: -10% | B: 8% | C: 20% | D: 16µM*! | E: 29µM*!
#5 Cc1oc(-c2ccc(C(=O)Nc3cccc(C(F)(F)F)c3)cc2)nc1CSc1ccccc1
  A: / | B: 3% | C: ? | D: 23µM* | E: 16µM*
#6 COc1ccc(NC(=O)c2ccc(-c3nc(CSc4ccccc4)c(C)o3)cc2)cc1OC
  A: / | B: 3% | C: 17% | D: ? | E: -14%
#7 Cc1cccc(NC(=O)c2ccc(-c3nc(CSc4ccccc4)c(C)o3)cc2)c1C
  A: / | B: 0% | C: 15% | D: 5.2µM* | E: ?
#8 O=C(NCC1CCCCC1)c1ccc(Cl)nc1
  A: -1% | B: -20% | C: -8% | D: 14% | E: -20%
#9 NC(=O)C[n+]1cccc2ccccc21
  A: 8% | B: 4% | C: -1% | D: -2% | E: -17%
#10 CCCCC[n+]1cccc2c3ccccc3ccc21
  A: ? | B: 13% | C: ? | D: 0.52µM* | E: 0.0073µM*
#11 c1ccc(C[n+]2cccc3c4ccccc4ccc32)cc1
  A: -16% | B: 5% | C: 28% | D: 3.7µM* | E: 3.7µM*
#12 C(=C\c1ccco1)/C=N/n1cnnc1
  A: -6% | B: / | C: -5% | D: ? | E: -1%
#13 CCOc1ccccc1/C=N/OCC(=O)NCc1ccc(F)cc1
  A: 6% | B: -3% | C: 2% | D: 0% | E: -1%
#14 C=CCn1c(O)c(N=NC(=O)OC(C)(C)C)c2ccccc21
  A: 2% | B: 1% | C: -12% | D: -5% | E: -22%
#15 C=CCn1c(O)c(N=Nc2ccccc2C)c2ccccc21
  A: -6% | B: 4% | C: 1% | D: 18µM* | E: ?
#16 CCCCn1c(O)c(N=Nc2ccccc2O)c2ccccc21
  A: 1% | B: 7% | C: / | D: 23µM* | E: ?
#17 CCCCn1c(O)c(N=Nc2ccccn2)c2ccccc21
  A: -3% | B: -1% | C: -3% | D: ? | E: ?
#18 C=CCn1c(O)c(N=NC(=S)Nc2ccc(OC)c(Cl)c2)c2ccccc21
  A: -1% | B: 11% | C: 19% | D: 4.6µM* | E: 2.6µM*
#19 CCn1c(O)c(N=Nc2ccc3ccccc3n2)c2ccccc21
  A: 12% | B: / | C: -63% | D: ? | E: 23µM*
#20 C=CCn1c(O)c(N=O)c2ccccc21
  A: 0% | B: 1% | C: -5% | D: 1% | E: 17%
#21 CCn1c(O)c(N=NC(=O)Cn2ccc(C(F)(F)F)n2)c2ccccc21
  A: 0% | B: 6% | C: -10% | D: -27% | E: ?
#22 Cc1[nH][nH]c(=O)c1C(c1ccc(Cl)cc1)c1c(C)[nH][nH]c1=O
  A: 6% | B: 1% | C: -1% | D: 20% | E: 4%
#23 Cc1ccccc1OCCNC(=O)CNC(=O)c1ccccc1O
  A: / | B: 2% | C: -9% | D: -5% | E: -19%
#24 COc1cccc(/C=C/c2nc(C#N)c(N3CCN(C)CC3)o2)c1
  A: / | B: -7% | C: -16% | D: 23µM* | E: 23µM*
#25 COc1cc(/C=C/c2nc(C#N)c(N3CCN(C)CC3)o2)cc(OC)c1OC
  A: / | B: 0% | C: 2% | D: 8.2µM* | E: 8.2µM*
#26 Cc1ccc(CNC(=O)C2CCCN(c3nn4c(=O)cc(C)nc4s3)C2)cc1 (configuration not stated)
  A: 0% | B: 0% | C: -2% | D: 10% | E: ?
#27 COc1ccc(-c2cc(C(=O)O)n(Cc3ccccc3)n2)cc1
  A: / | B: 2% | C: -11% | D: -3% | E: -19%
#28 O=C(CSc1nc2ccc(Cl)cc2[nH]1)NCCc1ccc(Cl)cc1
  A: 2% | B: 2% | C: 1% | D: ? | E: ?
#29 O=C(CSc1nc2ccc(Cl)cc2[nH]1)NCCc1ccccc1
  A: 2% | B: 6% | C: -8% | D: ? | E: 21µM*
#30 CC(C)c1ccccc1OCC(=O)NN1C(=O)c2ccccc2C1=O
  A: 1% | B: 1% | C: 4% | D: 1% | E: 3%
#31 Cc1cc(Nc2ccc(C)c(C)c2)c2ccccc2n1
  A: -11% | B: / | C: 25% | D: ? | E: ?
#32 COc1ccc(Nc2nc(N)c3cc(OC)c(OC)cc3n2)cc1
  A: / | B: -2%[12.3 µM] | C: -15% | D: ? | E: 18µM*
#33 COc1cc2nc(Nc3cccc(F)c3)nc(N)c2cc1OC
  A: 3% | B: 0% | C: 11% | D: 12µM* | E: 5.8µM*
#34 Cc1ccc(Nc2nc(N)c3ccccc3n2)cc1C
  A: 7.1µM* | B: / | C: 26% | D: 15µM* | E: 23µM*
#35 CC(=O)NCCNc1cc(-c2ccccc2CN(C)C)ncn1
  A: / | B: / | C: / | D: 1% | E: -4%
#36 CCN(CC)CCNC(=S)Nc1ccc2nc(N3CCN(C)CC3)cc(C)c2c1
  A: 8% | B: / | C: -21% | D: 26µM* | E: 16µM*
#37 Cc1cc(N2CCCC2)nc2ccc(NC(=S)NCCCOC(C)C)cc12
  A: ? | B: 0% | C: 4% | D: ? | E: ?
#38 CCCN(CCC)CCCNC(=S)Nc1ccc2nc(N3CCCC3)cc(C)c2c1
  A: ? | B: 5% | C: -2% | D: ? | E: 13µM*
#39 CCN(CC)CCNC(=S)Nc1ccc2nc(N3CCCC3)cc(C)c2c1
  A: ? | B: 3% | C: 19% | D: 13µM* | E: 10µM*
#40 O=C1CCCCN1CC(=O)N1CCCC(N2CCN(c3ccccc3F)CC2)C1 (configuration not stated)
  A: -2% | B: 3% | C: -3% | D: 4% | E: -3%
#41 CCOc1ccc(NC(=O)CSc2nnc(COc3c(C)cccc3C)o2)cc1
  A: 8% | B: -3% | C: -6% | D: -10% | E: -18%
#42 Cc1ccc(NC(=O)C2CCCN(S(=O)(=O)c3ccc4[nH]c(=O)ccc4c3)C2)nc1 (configuration not stated)
  A: 1% | B: 1% | C: -1% | D: -15% | E: 20%
#43 CCOC(=O)Cn1nc(C)c(NC(=O)COc2ccc(Cl)cc2C)c1C
  A: / | B: -2% | C: 15% | D: 9.2µM* | E: 8.2µM*
#44 Cc1nn(C)c(C)c1NC(=O)COc1ccc(Cl)cc1
  A: -14% | B: 1% | C: / | D: 6.5µM* | E: 2.6µM*
#45 Cc1nn(-c2ccccc2)c(C)c1NC(=O)COc1ccc(C#N)cc1
  A: 2% | B: 3% | C: -11% | D: ? | E: 12µM*

The closing 4 records of the section above are carried over, then new ones follow:
Letter code – A = uPA generation; B = TDP1 block; C = miR-21 FLuc; D = TDP1 cell CPT; E = DT40 TDP1 no CPT
#42 Cc1ccc(NC(=O)C2CCCN(S(=O)(=O)c3ccc4[nH]c(=O)ccc4c3)C2)nc1 (configuration not stated)
  A: 1% | B: 1% | C: -1% | D: -15% | E: 20%
#43 CCOC(=O)Cn1nc(C)c(NC(=O)COc2ccc(Cl)cc2C)c1C
  A: / | B: -2% | C: 15% | D: 9.2µM* | E: 8.2µM*
#44 Cc1nn(C)c(C)c1NC(=O)COc1ccc(Cl)cc1
  A: -14% | B: 1% | C: / | D: 6.5µM* | E: 2.6µM*
#45 Cc1nn(-c2ccccc2)c(C)c1NC(=O)COc1ccc(C#N)cc1
  A: 2% | B: 3% | C: -11% | D: ? | E: 12µM*
#46 Cc1ccnc(NC(=O)COc2ccc(Cl)cc2)n1
  A: 5% | B: 2% | C: -16% | D: -5% | E: -2%
#47 Cc1ccc(-n2nc(C)c(NC(=O)CCl)c2C)cc1C
  A: -9% | B: 5% | C: 28% | D: 8.2µM* | E: 8.2µM*
#48 CCOC(=O)Cn1nc(C)c(NC(=O)COc2ccc(F)cc2F)c1C
  A: / | B: 3% | C: -1% | D: / | E: /
#49 Cc1nn(-c2ccccc2)c(C)c1NC(=O)COc1ccccc1C#N
  A: / | B: / | C: / | D: ? | E: -25%
#50 Cc1nn(-c2ccccc2)c(C)c1NC(=O)COc1ccc2ccccc2c1
  A: / | B: 1% | C: 26% | D: 16µM* | E: 18µM*
#51 Cc1nn(-c2ccccc2)c(C)c1NC(=O)COC(=O)c1ccccc1
  A: 9% | B: -1% | C: / | D: -11% | E: 13%
#52 O=C(COC(=O)c1ccc(Cl)nc1)Nc1cc(S(=O)(=O)N2CCCCC2)ccc1Cl
  A: 1% | B: 3% | C: -2% | D: 18µM* | E: ?

Screening data from PubChem.
